{
  "source": "paper PMC11694061",
  "about": "(Cancer Research, 2024)",
  "system": "KU812 cells",
  "assay": "Proliferation, KU812",
  "type": "cell-based",
  "conditions": "Homo sapiens, KU812, 72 h, read-out: IC50 KU812",
  "protocol": "Cells were inoculated onto 96-well plates and treated with compounds in serial dilutions for 3 or 5 days. […] The cell viability of primary patient samples was tested using the CellTiter-Glo Luminescent Assay kit (G7573, Promega) according to the manufacturer’s instructions. […] The optical density (OD) values were obtained using a SPARK microplate reader (Tecan). IC50 was calculated using GraphPad Prism 8.0.2 (nonlinear regression analysis with four parameters). Drug synergy was evaluated with combination index (CI) values using CalcuSyn Demo Version 2.0 software. CI > 1 indicates antagonism, CI < 1 indicates synergy, and CI = 1 indicates additivity.",
  "data": [
    {"compound": "COc1cc2nc(C)nc(N[C@H](C)c3cc(N)cc(C(F)(F)F)c3)c2cc1O[C@H]1CCOC1", "note": "[BI-3406]", "values": [
      {"measurement": "IC50", "result": "23.2 ± 14.3", "unit": "nM"}
    ]}
  ]
}
